The source of these data is PubChem BioAssay AID1347075 (National Center for Advancing Translational Sciences (NCATS), 2019).

Only a part is listed here, and it is no random draw. Inconclusive results are not listed. The source made the active and inactive calls. The call rests on the fitted dose curve; in most records, active means well fitted cell-killing curve with a large enough effect; inconclusive means small, poorly fitted or top-dose-only effect, or effect the other way; inactive means flat fitted curve, though single readings scatter.
On the % scale 0 is the no-effect control and ±100 the full control effect.

The nature of the assay: qHTS assay for MDR1-selective chemotherapeutics: Primary screen using the parental adenocarcinoma cell KB-3-1. Further: nearly all actives have a fitted effect of over 60% in size. As to conditions: KB-3-1 viability, CellTiter-Glo ATP luminescence, 72 h; at 46.1 µM (top of the series). From the text: A prime difficulty in effectively treating cancer is the development of cellular resistance to multiple structurally unrelated anticancer drugs, a phenomenon known as multidrug resistance (MDR). […] Numerous strategies to overcome P-gp-mediated MDR have been explored, including the design of drugs that evade recognition and efflux, and development of inhibitors to block efflux and restore drug accumulation. […] An alternative approach is to exploit resistance by identifying drugs that target MDR cells over the non-resistant parental cells from which they were selected. […] The development of MDR1-selective agents represents a new strategy for resolving multidrug resistance, as it remains a long-standing clinical challenge for cancer chemotherapy.
Our goal is to identify compounds that selectively kill P-gp-expressing MDR cells. We will identify MDR1-selective compounds by comparing toxicity of compounds in the screening library against parental, drug-naive (KB-3-1) adenocarcinoma cells as well as their drug-selected MDR sub-line (KB-V1). The differential toxicity of compounds against these two cell lines will be used to identify MDR1-selective compounds, whose cytotoxicity is potentiated, rather than diminished, by P-gp expression. This assay will be utilized to conduct a quantitative high-throughput screen (qHTS) in collaboration with the NIH Chemical Genomics Center to identify selective agents, and probe hits arising from the screen will be validated using secondary assays and characterized through a well-established follow-up research program. This screen was run against the entire NCGC library collection of about 400,000 compounds.
NIH Molecular Libraries Probe Production Network [MLPCN]
NIH Chemical Genomics Center [NCGC]
PI: Michael Gottesman PhD, National Cancer Institute, NIH
Briefly, 5 microL of media containing either KB-3-1 cells (columns 1-2, 4-48) are dispensed into Greiner white, treated solid-bottom 1536-well assay plates (media-only control is added to column 3). Compounds are then transferred via Kalypsys pin tool equipped with 1536-pin array (10 nL slotted pins, V&P Scientific, San Diego, CA). Following addition of compound, the plates are incubated at 37 degrees C for 72 hours. CellTiter-Glo (2.5 µL/well) is then added, and the plates are read in a ViewLux reader (Perkin-Elmer, clear luminescence filter, 1 second exposure, 1x binning) following a 10 minute incubation. All cells are dispensed in DMEM phenol-red free media containing 10% FBS.
Library plates were screened starting from the lowest and proceeding to the highest concentration. Vehicle-only plates, with DMSO being pin-transferred to columns 5-48, will be inserted uniformly at the beginning and the end of each library in order to monitor and record any shifts in the background, which can be affected by reagent dispensers or loss in enzyme activity over time. Screening data will be corrected, normalized, and concentration-effect relationships will be derived by using publicly-available NCGC, NCATS curve fitting algorithms (http://ncgc.nih.gov/pub/openhts).
Take `Cc1cccc(C)c1OP(C)(N)=O` (centres undefined): the activity change, negative = cytotoxic was inactive: -7.69%.
The same measure for `O=[N+]([O-])c1ccc2c(c1)C=Nc1ccccc1O2`: inactive: -1.34%.
Take `O=[N+]([O-])c1cc([N+](=O)[O-])c(Nc2cccnc2)c([N+](=O)[O-])c1`: the activity change, negative = cytotoxic was inactive: -17.7%.
Under `COc1ccc(OP(C)(=O)Nc2cccc(F)c2)cc1` (centres undefined) stands inactive: 15.7%; under `Cc1cc(C)cc(OP(C)(N)=O)c1` (centres undefined), inactive: 0%.
The same measure for `CCOC(=O)c1ccc(NP(C)(=O)Oc2ccccc2)cc1` (centres undefined): inactive: 0%.
Under `Cc1ccc(NP(C)(=O)Oc2ccccc2)c(C)c1` (centres undefined) stands inactive: -3.9%; under `COc1ccccc1OP(C)(=O)Nc1ccc(C)cc1` (centres undefined), inactive: 11.1%.
As to `CCN(CC)CCCOC(=O)C(O)(c1ccccc1)c1ccccc1`, the activity change, negative = cytotoxic is inactive: -11.7%.
As to `COc1ccccc1-c1ccccn1.O=[N+]([O-])c1cc([N+](=O)[O-])c(O)c([N+](=O)[O-])c1`, the activity change, negative = cytotoxic was inactive: 6.06%.
Under `Cc1cc(C)cc(OP(C)(=O)Nc2ccc(SC(F)(F)F)cc2)c1` (centres undefined) stands inactive: 3.26%; under `CCc1ccc(OP(C)(=O)N2CCN(c3ccc([N+](=O)[O-])cc3)CC2)cc1` (centres undefined), inactive: -28.3%; under `CP(=O)(NC(=O)Nc1ccccc1)Oc1ccccc1` (centres undefined), inactive: -1.39%.
Under `CP(=O)(Oc1ccccc1)OC(c1ccccc1)C(F)(F)F` (centres undefined) stands inactive: -2.87%; under `CP(=O)(Nc1ccc(SC(F)(F)F)cc1)Oc1ccc(Cl)cc1` (centres undefined), inactive: -28.2%; under `Cc1cccc(C)c1OP(C)(=O)Nc1ccc(SC(F)(F)F)cc1` (centres undefined), inactive: 8.83%.
The same measure for `CP(=O)(Nc1ccccn1)Oc1ccc(Cl)cc1` (centres undefined): inactive: -5.82%; for `CCOP(C)(=S)SCC(=O)NC(C)C(=O)O` (centres undefined): inactive: 23.6%; for `O=[N+]([O-])c1cc([N+](=O)[O-])c(O)c([N+](=O)[O-])c1.c1ccc(Oc2ccncc2)cc1`: inactive: 0.0931%.
`COc1ccccc1OP(C)(=O)Nc1ccccc1` (centres undefined): the activity change, negative = cytotoxic was inactive: 7.67%.
Regarding `CP(=O)(Nc1ccccc1Br)Oc1ccccc1` (centres undefined), the activity change, negative = cytotoxic is inactive: 9.77%.
As to `CP(=S)(Nn1cnnc1)Oc1ccccc1` (centres undefined), the activity change, negative = cytotoxic was inactive: 3.91%.
Under `O=[N+]([O-])c1cc([N+](=O)[O-])c(Nc2nnnn2CCO)c([N+](=O)[O-])c1` stands inactive: 0.267%.
Under `CC1=C2N=C(C=C3N=C(C(C)=C4[N-][C@@](C)([C@@H]5N=C1[C@](C)(CCC(=O)NC[C@@H](C)OP(=O)([O-])O[C@H]1[C@@H](O)[C@@H](n6cnc7cc(C)c(C)cc76)O[C@@H]1CO)[C@H]5CC(N)=O)[C@@](C)(CC(N)=O)[C@@H]4CCC(N)=O)[C@@](C)(CC(N)=O)[C@@H]3CCC(N)=O)C(C)(C)[C@@H]2CCC(N)=O.[C-]#N.[Co+3]` stands inactive: -0.283%.
Under `CP(=O)(Nc1ccc(SC(F)(F)F)cc1)Oc1ccccc1` (centres undefined) stands inactive: -11.6%; under `CCCOc1ccc(NP(C)(=O)Oc2ccc(Cl)cc2)cc1` (centres undefined), inactive: -1.36%.
Consider `COc1ccccc1OP(C)(=O)Nc1c(C)cccc1C` (centres undefined), for which the activity change, negative = cytotoxic was inactive: -4.56%.
The same measure for `CN(Cc1cccnc1)C(=O)COc1ccc(Cl)c(Cl)c1.O=[N+]([O-])c1cc([N+](=O)[O-])c(O)c([N+](=O)[O-])c1`: inactive: 0%; for `O=[N+]([O-])c1cc([N+](=O)[O-])c(-n2nnc3ccccc32)c([N+](=O)[O-])c1`: inactive: -16.1%; for `Cc1nc2ccc3ccccc3c2s1.O=[N+]([O-])c1cc([N+](=O)[O-])c(O)c([N+](=O)[O-])c1`: inactive: 14.1%.
The same measure for `Cc1cc(C)cc(OP(C)(=O)Nc2ccc(C)cc2C)c1` (centres undefined): inactive: 11.3%; for `COc1ccccc1OP(C)(=O)Nc1cccc(Br)c1` (centres undefined): inactive: -23.7%; for `CP(=O)(Nc1cccc(Br)c1)Oc1ccccc1` (centres undefined): inactive: -6.56%.
Under `Cc1cc(C)cc(OP(C)(=O)Nc2ccccn2)c1` (centres undefined) stands inactive: 13.7%; under `Cc1ccc(C)c(NP(C)(=O)Oc2ccccc2)c1` (centres undefined), inactive: -4.46%.
Take `CC1=NCCc2c1[nH]c1ccccc21.O=[N+]([O-])c1cc([N+](=O)[O-])c(O)c([N+](=O)[O-])c1`: the activity change, negative = cytotoxic is inactive: 9.8%.
Under `COc1ccc(OP(C)(=O)Nc2ccc(SC(F)(F)F)cc2)cc1` (centres undefined) stands inactive: 1.35%; under `CCOC(=O)c1ccc(NP(C)(=O)Oc2ccc(F)cc2)cc1` (centres undefined), inactive: -3.19%; under `CCCCCOc1ccc(NP(C)(=O)Oc2ccc(Cl)cc2Cl)cc1` (centres undefined), inactive: 0%.
`CP(=O)(Nc1ccccc1)Oc1ccc(F)cc1` (centres undefined): the activity change, negative = cytotoxic was inactive: 1.42%.
Consider `CCN(CC)CCCOC(=O)C(O)(c1ccccc1)C1CCCCC1` (centres undefined), for which the activity change, negative = cytotoxic was inactive: -0.623%.
Consider `Cc1c([N+](=O)[O-])cc([N+](=O)[O-])c(Br)c1[N+](=O)[O-]`, for which the activity change, negative = cytotoxic was inactive: 6.41%.
With `CC(C)c1ccc(OP(C)(=O)Nc2ccc(SC(F)(F)F)cc2)cc1` (centres undefined), the activity change, negative = cytotoxic is inactive: 17.8%.
Under `CP(=O)(Nc1ccccc1F)Oc1ccccc1` (centres undefined) stands inactive: -7.39%.
The same measure for `O=C(OCCN1CCN(CCOCc2ccccc2)CC1)C(O)(c1ccccc1)c1ccccc1`: inactive: -0.454%; for `CCOP(C)(=S)SCC(=O)NC(C)(CC)C(=O)O` (centres undefined): inactive: -0.598%.
Under `CP(=O)(Nc1ccc(SC(F)(F)F)cc1)Oc1ccc(F)cc1` (centres undefined) stands inactive: -0.393%.
Take `O=[N+]([O-])c1cc([N+](=O)[O-])c(C(F)(F)F)c([N+](=O)[O-])c1O`: the activity change, negative = cytotoxic is inactive: -13.9%.
Under `Cc1ccccc1NP(C)(=O)Nc1ccccc1C` stands inactive: 15.9%.
As for `CP(=O)(Nc1ccc2c(c1)OCCO2)Oc1ccccc1` (centres undefined), the activity change, negative = cytotoxic was inactive: -3.47%.
Under `COc1ccc(NP(C)(=O)Oc2ccccc2OC)cc1` (centres undefined) stands inactive: 10.7%; under `CN(C)CCOC(=O)C(O)(c1ccccc1)C1CCCCC1` (centres undefined), inactive: 8.47%; under `COc1ccc(OP(C)(=O)Nc2cccc(Br)c2)cc1` (centres undefined), inactive: -0.135%.
The same measure for `Cc1c(C(c2ccc3c(c2)OCO3)c2c(C)n(C)n(-c3ccccc3)c2=O)c(=O)n(-c2ccccc2)n1C.O=[N+]([O-])c1cc([N+](=O)[O-])c(O)c([N+](=O)[O-])c1`: inactive: -12.2%; for `O=[N+]([O-])c1ccc(OP2(=O)COCCO2)cc1` (centres undefined): inactive: 5.18%; for `CP(=O)(OC12CC3CC(CC(C3)C1)C2)OC12CC3CC(CC(C3)C1)C2`: inactive: -21.1%.
The same measure for `CCOC(=O)c1ccc(NP(C)(=O)Oc2ccc(Cl)cc2)cc1` (centres undefined): inactive: 7.97%; for `Nc1ccc2c(ccc3cccnc32)n1.O=[N+]([O-])c1cc([N+](=O)[O-])c(O)c([N+](=O)[O-])c1`: inactive: 4.01%; for `CCc1ccc(OP(C)(=O)Nc2cccnc2)cc1` (centres undefined): inactive: 26.1%.
For the compound `CP(=O)(Oc1ccccc1)N1CCOC1=O` (centres undefined), the activity change, negative = cytotoxic was inactive: -0.267%.
The same measure for `O=C(OCCCN1CCCC1)C(O)(c1ccccc1)C1CCCCC1` (centres undefined): inactive: -0.462%; for `COc1ccccc1OP(C)(=O)Nc1c(C)n(C)n(-c2ccccc2)c1=O` (centres undefined): inactive: 8.36%.
Under `COc1ccc(OP(C)(=O)Nc2ccc(Br)cc2)cc1` (centres undefined) stands inactive: 19.2%; under `CCN(CC)CC(O)COC(=O)C(O)(c1ccccc1)C1CCCCC1` (centres undefined), inactive: -2.7%; under `CP(=O)(Nc1ccc(Cl)cc1)Oc1ccc(F)cc1` (centres undefined), inactive: -1.56%.
On to `CC(C)(C)c1ccc(OP(C)(=O)O)cc1`, for which the activity change, negative = cytotoxic is inactive: 4.6%.
Under `COc1ccccc1OP(C)(=O)Nc1ccccc1Br` (centres undefined) stands inactive: -12%.
Take `CN(C)CCOC(=O)C(O)(c1ccccc1)C1CCCC1` (centres undefined): the activity change, negative = cytotoxic is inactive: 0.539%.
As to `COc1ccc(OP(C)(=O)Nc2ccccn2)cc1` (centres undefined), the activity change, negative = cytotoxic was inactive: 1.32%.
In the case of `COc1ccccc1OP(C)(=O)Nc1ccc(Br)cc1` (centres undefined), the activity change, negative = cytotoxic is inactive: 3.23%.
Under `CCc1ccc(OP(C)(=O)O)cc1` stands inactive: -2.92%; under `COc1ccccc1OP(C)(=O)Nc1ccc(C)cc1C` (centres undefined), inactive: 7.39%.
The same measure for `CP(=O)(Nc1ccccn1)Oc1ccccc1` (centres undefined): inactive: -3.81%; for `Cc1c(NP(C)(=O)Oc2ccc(C(C)C)cc2)c(=O)n(-c2ccccc2)n1C` (centres undefined): inactive: 9.82%; for `COc1ccc(OP(C)(=O)Nc2ccccc2Br)cc1` (centres undefined): inactive: 3.53%.
`COc1ccccc1OP(C)(=O)Nc1ccc(C)c(C)c1` (centres undefined): the activity change, negative = cytotoxic was inactive: 5.11%.
The same measure for `Cc1cc(C)cc(OP(C)(=O)Nc2cccc(C(F)(F)F)c2)c1` (centres undefined): inactive: -9.52%.
The same measure for `CP(=O)(OCCOc1ccccc1)OCCOc1ccccc1`: inactive: -0.468%.
The same measure for `CP(=O)(Nc1ccc(Cl)cc1Cl)Oc1ccccc1` (centres undefined): inactive: 3.16%.
